Measured values as given in ChEMBL document CHEMBL3124844 (J Med Chem, 2014).

Assays:
Rattus norvegicus = species on record: Rattus norvegicus; assay: Displacement of [3H]nisoxetine from Sprague-Dawley rat brain NET at 100 uM after 180 mins by liquid scintillation counting analysis relative to control; format: tissue-based
[1] = molecular target: Sodium-dependent serotonin transporter (Rattus norvegicus) (UniProt P31652); assay: Displacement of [3H]citalopram from Sprague-Dawley rat brain SERT at 100 uM after 60 mins by liquid scintillation counting analysis relative to control; format: tissue-based
[2] = tested on: Sodium-dependent serotonin transporter (Homo sapiens), P31645 [T497A]; settings: COS-7, 100 uM

## O=C(CSC(c1ccccc1)c1ccccc1)NCCCc1ccccc1
Rattus norvegicus
  inhibition: < 50%
[1]
  inhibition: < 50%

## O=C(CSC(c1ccc(Cl)cc1)c1ccc(Cl)cc1)NCCCc1ccccc1
Rattus norvegicus
  inhibition: < 50%
[1]
  inhibition: < 50%

## CNC(=O)CSC(c1ccccc1)c1ccccc1
[1]
  inhibition: < 50%
[2]
  inhibition: < 50%
